Reference: PubChem BioAssay AID2544 (Sanford-Burnham Center for Chemical Genomics, 2010)
Only a part is listed here, and it is no random draw. Calls of active or inactive are those of the source.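 How the source made its calls: active means inhibition reaching a set limit with compound at 10 µM in the primary screen (cut at about 35% in these data); inactive means the rest.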

Protein sequences, listed by entry. Tags and fused reporters are not part of them. Lines headed by an entry give the natural chain unless they say otherwise; changes in a name come on top.
UniProt P09923: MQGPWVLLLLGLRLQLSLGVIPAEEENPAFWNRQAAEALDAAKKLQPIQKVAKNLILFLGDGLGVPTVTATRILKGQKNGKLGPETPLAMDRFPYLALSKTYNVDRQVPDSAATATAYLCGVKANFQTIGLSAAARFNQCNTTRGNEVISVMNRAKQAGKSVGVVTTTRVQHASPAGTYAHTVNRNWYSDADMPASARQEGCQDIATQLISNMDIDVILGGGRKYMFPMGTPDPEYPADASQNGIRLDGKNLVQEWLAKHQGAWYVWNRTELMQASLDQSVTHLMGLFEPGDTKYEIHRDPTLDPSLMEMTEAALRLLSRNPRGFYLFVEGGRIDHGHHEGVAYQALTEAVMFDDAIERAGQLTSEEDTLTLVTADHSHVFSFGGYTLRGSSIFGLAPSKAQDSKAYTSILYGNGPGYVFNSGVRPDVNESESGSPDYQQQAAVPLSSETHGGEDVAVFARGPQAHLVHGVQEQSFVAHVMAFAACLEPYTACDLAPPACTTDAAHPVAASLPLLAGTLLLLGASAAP

These compounds were tested against Intestinal-type alkaline phosphatase (Homo sapiens) (UniProt P09923) (assay: human IAP inhibitors, primary screen, biochemical, luminescence, uHTS (AID 2544;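 further: plate controls were DMSO wells with enzyme for no effect and no-enzyme buffer wells for full effect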)). Conditions: purified IAP, CDP-Star luminescence, 30 min; at 10 µM; stronger effect = higher value.

SMILES	inhibition
CS(=O)(=O)c1cc([N+](=O)[O-])c2no[n+]([O-])c2c1	inactive: -8.9%
CCOP1(=S)c2c(C)nn(CCC#N)c2N=C(c2ccccc2F)N1C (configuration not stated)	inactive: 4.9%
O=P(Nc1nccs1)(c1ccccc1)c1nc2ccccc2s1 (configuration not stated)	inactive: -4.7%
O=P(Nc1nccs1)(Oc1ccccc1)Oc1ccccc1	inactive: -11.5%
Nc1ccccc1[As](=O)(O)c1ccccc1	inactive: 0.8%
O=C(O)COc1ccc([As](=O)(O)O)cc1[N+](=O)[O-]	inactive: 14%
NC(=O)Nc1ccc([As](=O)(O)O)cc1	inactive: -13.5%
CN(C)C(=O)c1cc([N+](=O)[O-])cc2c1-c1c(cc([N+](=O)[O-])cc1[N+](=O)[O-])C2=O	inactive: 5.6%
O=[N+]([O-])c1ccc2c(c1)nnn2O	inactive: 8.2%
CN(C(=O)Cc1ccc(Cl)c(Cl)c1)[C@H]1CC[C@@]2(CCCO2)C[C@@H]1N1CCCC1	inactive: 14.6%
N#CCCN(C(=O)COC(=O)C(O)(c1ccccc1)c1ccccc1)c1ccc(F)cc1	inactive: -7.5%
CN(C(=O)Cc1ccccc1)[C@@H]1CC[C@]2(CCCO2)C[C@H]1N1CCCC1	inactive: 0.3%
CCOP1(=S)c2c(C)nn(CCC#N)c2N=C(c2ccc(F)cc2)N1C (configuration not stated)	active: 38.8%
COc1cc(C(=O)NCC2(N3CCOCC3)CCCCC2)cc(Cl)c1OC(C)C	inactive: -9.7%
O=[As](O)(O)c1cccnc1	inactive: 4.7%
CS(=O)(=O)c1ccc(Cl)c(NC(=O)COC(=O)C(O)(c2ccccc2)c2ccccc2)c1	inactive: -26.5%
O=C(OC1CN2CCC1CC2)c1ccc(Cl)cc1 (configuration not stated)	inactive: 7.2%
O=[As](O)(c1cccc(O)c1)c1cccc(O)c1	inactive: 12.2%
Cc1cccc(OCC(=O)OC2CN3CCC2CC3)c1 (configuration not stated)	inactive: 12.8%
CCCOP(=S)(Nc1nc(N)cc(=O)[nH]1)OCCC	inactive: -8.9%
Cc1ccc(NCCc2c([N+](=O)[O-])cc([N+](=O)[O-])cc2[N+](=O)[O-])cc1	inactive: 7.2%
COc1cc(C2NCCC3(OCCO3)C2(C)C)cc(OC)c1OC (configuration not stated)	inactive: -14.1%
CCOP(=O)(Nc1cccc2ccccc12)OCC	inactive: 7.3%
CN(CCCl)Cc1cc(Cl)c(NC2=NCCN2)c(Cl)c1	inactive: 9.9%
CCOP(=O)(Nc1ccc(C)cn1)OCC	inactive: 15.6%
O=P1(Nc2ccccn2)COc2ccccc2OC1	inactive: -15.5%
CCC1=CC2Cc3nc4ccc(Cl)cc4c(N)c3C(C1)C2 (configuration not stated)	inactive: 3.9%
